{"sequences": {"note": "Protein sequences, listed by entry. Tags and fused reporters are not part of them. Residues count along the entry.", "UniProt A0A3Q1MT31, 1-419": "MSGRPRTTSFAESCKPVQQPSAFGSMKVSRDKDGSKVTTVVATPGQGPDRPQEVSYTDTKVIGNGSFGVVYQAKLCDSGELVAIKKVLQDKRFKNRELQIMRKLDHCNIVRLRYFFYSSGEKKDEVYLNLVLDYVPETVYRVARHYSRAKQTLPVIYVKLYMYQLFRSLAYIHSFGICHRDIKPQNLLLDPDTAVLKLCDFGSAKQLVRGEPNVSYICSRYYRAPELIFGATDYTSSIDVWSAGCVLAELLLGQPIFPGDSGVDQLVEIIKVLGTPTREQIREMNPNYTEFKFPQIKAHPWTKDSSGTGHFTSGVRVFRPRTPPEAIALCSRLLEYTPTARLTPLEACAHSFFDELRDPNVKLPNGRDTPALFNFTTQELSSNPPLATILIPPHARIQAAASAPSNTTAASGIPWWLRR"}, "source": "patent US7504411B2", "about": "“2,3,6-Trisubstituted-4-pyrimidone derivatives” (Mitsubishi Tanabe Pharma Corporation, priority 2003, dated 2009)", "molecular_target": "bovine cerebral TPK1 (Bos taurus, UniProt A0A3Q1MT31)", "assay": "Inhibitory activity against P-GS1 phosphorylation by bovine cerebral TPK1", "conditions": "41.7 μM [γ-32P]ATP, 25° C., 2 hours", "experimental": "Inhibitory Activity of the Medicament of the Present Invention against P-GS1 Phosphorylation by Bovine Cerebral TPK1\nA mixture containing 100 mM MES-sodium hydroxide (pH 6.5), 1 mM magnesium acetate, 0.5 mM EGTA, 5 mM β-mercaptoethanol, 0.02% Tween 20, 10% glycerol, 12 μg/ml P-GS1, 41.7 μM [γ-^32P] ATP (68 kBq/ml), bovine cerebral TPK1 and a compound shown in Table (a final mixture contained 1.7% DMSO deriving from a solution of a test compound prepared in the presence of 10% DMSO) was used as a reaction system. The phosphorylation was started by adding ATP, and the reaction was conducted at 25° C. for 2 hours, and then stopped by adding 21% perchloric acid on ice cooling. The reaction mixture was centrifuged at 12,000 rpm for 5 minutes and adsorbed on P81 paper (Whatmann), and then the paper was washed four times with 75 mM phosphoric acid, three times with water and once with acetone. The paper was dried, and the residual radioactivity was measured using a liquid scintillation counter.", "data": [{"compound": "Cn1c(N2CCC(c3ccc(Br)cc3)CC2)nc(-c2ccncn2)cc1=O", "values": [{"measurement": "IC50", "result": 14, "unit": "nM"}]}]}
